{"source": "paper PMC6009982", "about": "“Diaryl ethers with carboxymethoxyphenacyl motif as potent HIV-1 reverse transcriptase inhibitors with improved solubility” (Journal of Enzyme Inhibition and Medicinal Chemistry, 2017)", "key": {"[1]": {"test": "Aqueous solubility by weighing dried aliquots", "assay_type": "physicochemical", "conditions": "tested form: K salt; for Solubility: ultrapure deionised water, room temperature, pH =7"}, "SupT1 cells": {"tested_on": "SupT1 cells", "test": "Cytotoxicity from cell numbers in non-infected SupT1 cultures", "assay_type": "cell-based", "conditions": "tested form: K salt; for Threshold toxicity: concentration at which toxicity is observed in 10-fold titration series"}, "CD4+ T cells": {"tested_on": "CD4+ T cells", "test": "Cytotoxicity from cell numbers in CD4+ T cells", "assay_type": "cell-based", "conditions": "primary CD4+ T cells; tested form: K salt"}}}
{"smiles": "N#Cc1cc(Cl)cc(Oc2ccc(Cl)cc2OCC(=O)c2ccc(Oc3ccc(OCC(=O)O)cc3)cc2)c1", "values": [{"measurement": "Solubility", "setting": "[1]", "value": ">50.0", "unit": "mg/mL"}, {"measurement": "Threshold toxicity", "setting": "SupT1 cells", "value": 50, "unit": "µM"}]}
{"smiles": "N#Cc1cc(Cl)cc(Oc2cc(Cl)ccc2OCC(=O)c2ccc(OCC(=O)O)cc2)c1", "values": [{"measurement": "Threshold toxicity", "setting": "SupT1 cells", "value": 5, "unit": "µM"}]}
{"smiles": "N#Cc1cc(Cl)cc(Oc2cc(OCC(=O)c3ccc(Oc4ccc(OCC(=O)O)cc4)cc3)ccc2Cl)c1", "values": [{"measurement": "Solubility", "setting": "[1]", "value": 3.2, "unit": "mg/mL"}, {"measurement": "Solubility relative to RPV", "setting": "[1]; water, times greater than that of RPV", "value": "ca. 100,000 times"}, {"measurement": "Threshold toxicity", "setting": "SupT1 cells", "value": 50, "unit": "µM"}, {"measurement": "Concentration above which toxicity was apparent", "setting": "SupT1 cells", "value": "above 20 µM"}, {"measurement": "Concentration above which toxicity was apparent", "setting": "CD4+ T cells", "value": "above 20 µM"}]}
